In patent US8258100B2, “Ligand/lytic peptide methods of use” (Board of Supervisors of Louisiana State University and …, priority 1997, dated 2012):

Assays:
LNCaP cells = assay: specific binding of LH to prostate cancer cells; design: species or system human
DU145 cells = assay: specific binding of LH to prostate cancer cells; design: species or system human

For LH: luteinizing hormone, the specific binding (LNCaP cells) was “have not been able to consistently measure specific binding” and the specific binding (DU145 cells) was “specifically binds DU145 cells”.
